Measurements taken from patent US12365761B2, “Biodegradable ultra-pH sensitive polymers” (priority 2019, dated 2025).

What was measured:
[1] = test system: HEK-Blue™ IL-2 reporter cells; assay: IL-2 function in HEK-Blue IL-2 reporter cells (SEAP); format: cell-based; settings: 24 h incubation, SEAP at 630 nm
Protocol: The IL-2 function was investigated using HEK-Blue™ IL-2 reporter cells, which are designed to monitor the activation of the JAK-STAT pathway induced by IL-2. Briefly, cells were rinsed by pre-warmed PBS and detached from the flask to prepare a cell suspension at ˜280,000 cells/mL. […] The samples were incubated with 180 μL of cell suspension per well at 37° C. in a CO2 incubator (IL-2 concentration: 200, 50, 10, 2, 0.5, 0.2, 0.05, 0.01 ng/mL; […] The plate was incubated at 37° C. incubator for 1 h and then SEAP levels were determined using a spectrophotometer at 630 nm.

[2] = body weight during IL-2 therapy

Q: Which “EC50 of IL-2 function” value [1] does the source give for “free IL-2: human recombinant IL-2 protein, a T cell growth factor” here?
A: Its value is 15 ng/mL.

Q: What about the body weight change ([2]; i.t. injection day 1 and 5, within 11 days) of the same substance?
A: Its body weight change is “slightly increased”.

Q: What about the body weight change ([2]; i.v. injection day 1 and 5, within 11 days) of the same substance?
A: The body weight change was “some temporal loss”.
